# Ab-14 light chain CDR variants: yeast mating affinities

Reference: Li et al. 2023, doi:10.1038/s41467-023-39022-2. File: FLAb, binding data.

Binding partner: SARS-CoV-2 spike HR2 peptide, sequence PDVDLGDISGINAS.

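Phage display of a naive human antibody library on the peptide gave the parent. Designed CDR sequences, proposed from the first random library and measured here. Their group label is 14L_En_Gen (En: ensemble of fine-tuned language models; Gen: genetic algorithm). Affinity was read by AlphaSeq, a pooled yeast mating assay with surface-displayed partners. The frequency of each diploid, read from paired DNA barcodes, reflects how well the two displayed proteins bind. The ratio of observed to expected reads was calibrated, replicate by replicate, on BCL2-family standards whose Kd was known from biolayer interferometry. There are six technical replicates.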

Parent scFv Ab-14: VH joined to VL by a 15-residue (Gly4Ser)3 linker. Changes lie in the light chain CDRs alone.
VH: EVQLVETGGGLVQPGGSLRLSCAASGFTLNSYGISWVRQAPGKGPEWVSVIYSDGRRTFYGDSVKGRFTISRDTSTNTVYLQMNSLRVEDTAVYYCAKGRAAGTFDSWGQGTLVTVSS
VL: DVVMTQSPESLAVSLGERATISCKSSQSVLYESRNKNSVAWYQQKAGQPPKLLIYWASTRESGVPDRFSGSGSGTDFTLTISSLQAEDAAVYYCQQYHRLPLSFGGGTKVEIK

Variants are written as CDR1, CDR2 and CDR3 of the light chain (limits as in the source). Parent: KSSQSVLYESRNKNSVA, WASTRES, QQYHRLPLS.
Scale: log10 of Kd in nM, estimated from mating counts; low values are strong binders.
Replicates are averaged; those with no signal do not enter the mean.
"nd" marks a missing value. The strain was present, yet no cells mated with the target were sequenced in that replicate, which points to weak or no binding.

CDR-L1	CDR-L2	CDR-L3	replicates, log10 nM	mean log10 Kd (nM)	signal with controls
SISGFMKSLSAHTNSVA	DMTNRES	QQYDRLPLS	2.64 / 1.03 / 0.65 / 0.59 / 1.18 / 1.07	1.19	0 of 18
TISQMTSLFSQSINNVA	EVSMREK	QQYDRLPLA	0.77 / 0.95 / 0.54 / 0.73 / 0.47 / 0.68	0.69	2 of 18 (1.32)
HIGLSTMLEEYVRNSVA	NNSTREK	QQYDRLPLS	2.52 / 3.50 / 1.95 / 4.03 / 2.49 / nd	2.90	3 of 18 (2.63)
TLYGLSVSMSKNTNNVA	EMTTREK	QQYDRLPLI	1.03 / 0.92 / 1.45 / 0.98 / 0.93 / 0.97	1.05	3 of 18 (2.41)
KLSSVTGTEKVHGNNVA	EMETRER	QQYNRLPLS	-0.24 / -0.37 / -0.51 / -0.58 / -0.46 / -0.27	-0.41	0 of 18
KVYGGINFQSSAKNSIA	EEVMRTK	QQYARLPLS	0.76 / 0.76 / 0.66 / 1.05 / 0.70 / 0.87	0.80	1 of 18 (2.33)
MLHEVMGLVSHKQSSIA	DNSTRED	QQYDRLPLS	nd / 3.37 / 2.18 / nd / 2.18 / 3.03	2.69	1 of 18 (2.53)
KLSMITGHLQQSKNNVA	EMVTREN	QQYERLPLS	0.37 / 0.47 / 0.08 / -0.15 / -0.04 / 0.36	0.18	1 of 18 (2.79)
HMSAITLTGMRARNSVA	QMTTREN	QQYDRLPLS	0.59 / 0.62 / 0.91 / 0.40 / 0.82 / 0.92	0.71	0 of 18
KIGATLNSLYEKQNNVA	DLVEREN	QQYHRLPLS	0.10 / 0.22 / 0.34 / 0.39 / 0.31 / 0.38	0.29	1 of 18 (3.51)
HMSMLTMMGMRHRNSVA	QMTMREN	QQYDRLPLT	nd / 1.47 / 1.99 / 3.10 / 1.19 / 2.02	1.95	0 of 18
IVSQLMLWGMHARNSIA	EAVTRLN	QQYDRLPLI	nd / nd / nd / nd / nd / nd	nd	0 of 18
KVSEFMRGLMGRKDSIA	DNETRGA	QQYDRLPLS	1.68 / 2.13 / 1.24 / 1.95 / 2.79 / 2.02	1.97	0 of 18
MVTQMAMTGMMSKRSVA	NATTREY	QQYHRLPLI	1.51 / 1.45 / 1.52 / 0.78 / 1.28 / 1.58	1.35	1 of 18 (3.41)
KISMLLNSTFETSNNVA	EMATREK	QQYNRLPLS	0.94 / 0.87 / 0.81 / 1.12 / 1.27 / 1.07	1.01	0 of 18
MVTQMAMSGMTNKRSVA	NANTRED	QQYHRLPLM	0.05 / -0.12 / -0.16 / -0.21 / -0.17 / -0.16	-0.13	2 of 18 (2.70)
MLGDVAFGLSRKHNSVA	DNSTRES	QQYDRLPLS	nd / 1.82 / 2.41 / 1.38 / 2.72 / 1.47	1.96	0 of 18
HMSMLTLSGMYQRNSVA	QMTTREN	QQYDRLPLS	2.12 / 2.78 / nd / 1.66 / 2.36 / 1.65	2.11	1 of 18 (2.53)
MMSQVTMSGMRHRNNVA	QTSTREP	QQYDQLPLI	0.69 / 0.83 / 0.79 / 0.92 / 0.79 / 1.23	0.87	0 of 18
MMSQVTGSGTRHRNNVA	QTSTREP	QQYDRLPLV	2.21 / 2.22 / 1.28 / 2.24 / 1.13 / 1.53	1.77	0 of 18
TLSQMSGLEAVKHNSVA	ENSTREK	QQYDRLPLA	nd / nd / nd / nd / nd / nd	nd	0 of 18
KLTNVTGTEKVLGNNVA	EMETRER	QQYNRLPLS	1.17 / 0.83 / 0.68 / 1.14 / 0.73 / 0.91	0.91	0 of 18
MISNVMNTLTRQGNNVA	DLQNRED	QQYFRLPLS	1.34 / 1.01 / 1.24 / 1.73 / 0.98 / 1.36	1.28	2 of 18 (2.54)
MLSQMWALGMKVKNSVA	QASIRFN	QQYDRLPLM	nd / 1.38 / nd / nd / nd / nd	1.38	0 of 18
KVSEFMRGLMMRKDSIA	DNVTREN	QQYDRLPLS	nd / nd / nd / 3.39 / 4.07 / 3.80	3.75	1 of 18 (2.07)
MLSEVLHMLGVKKNSIA	DLVLRAN	QQYHRLPLA	nd / nd / nd / nd / nd / nd	nd	0 of 18
IVSQLMLWGMHRKNSIA	EAQTRIN	QQYDRLPLM	nd / 2.35 / 2.04 / 3.22 / 2.95 / 2.98	2.71	1 of 18 (2.06)
KIGMTLNQLYEKQNNVA	DLVTRED	QQYHRLPLS	-0.07 / -0.35 / -0.17 / -0.10 / -0.63 / 0.14	-0.20	0 of 18
KLSQMHGTEWVNRNSVA	ELVTRMS	QQYNRLPLS	0.32 / 0.91 / 0.23 / -0.25 / 0.18 / 0.24	0.27	0 of 18
MLTDVARGLTRKEDSVA	DNSTRES	QQYDRLPLS	nd / 2.43 / nd / 3.01 / 1.86 / nd	2.44	2 of 18 (2.80)
KVSEFMRGLMQKTDSIA	DNVTRGN	QQYDRLPLS	1.10 / 1.06 / 1.20 / 1.53 / 1.88 / 1.56	1.39	2 of 18 (2.16)

The first 4 entries again:

| CDR-L1 | CDR-L2 | CDR-L3 | replicates, log10 nM | mean log10 Kd (nM) | signal with controls |
|---|---|---|---|---|---|
| SISGFMKSLSAHTNSVA | DMTNRES | QQYDRLPLS | 2.64 / 1.03 / 0.65 / 0.59 / 1.18 / 1.07 | 1.19 | 0 of 18 |
| TISQMTSLFSQSINNVA | EVSMREK | QQYDRLPLA | 0.77 / 0.95 / 0.54 / 0.73 / 0.47 / 0.68 | 0.69 | 2 of 18 (1.32) |
| HIGLSTMLEEYVRNSVA | NNSTREK | QQYDRLPLS | 2.52 / 3.50 / 1.95 / 4.03 / 2.49 / nd | 2.90 | 3 of 18 (2.63) |
| TLYGLSVSMSKNTNNVA | EMTTREK | QQYDRLPLI | 1.03 / 0.92 / 1.45 / 0.98 / 0.93 / 0.97 | 1.05 | 3 of 18 (2.41) |

The range of this assay differs from that of the first round, and the authors advise against merging the two.
Of ten entries with the parent sequence, four were seen in most replicates (averages 0.34 to 2.37), three in one and three in none, so single entries are noisy.
Three control strains display no target. For all light chain designs, 4% of the pairings with them gave a signal, with a median of 2.64 and one signal in twenty below 1.59, so weak values seen in few replicates may be background. The control count says in how many pairings with the empty strains this scFv gave a signal, with their mean in brackets.
The authors' rule: three or more of the six replicates give a measured affinity, fewer mean a poor binder.